Values quoted from earlier work as cited in patent US5374661A (Sano Corporation, priority 1993, dated 1994).

What was measured:
[1] = test system: arachidonic acid
[2] = in vivo

What does the source list for `O=C(O)Cc1ccccc1Nc1c(Cl)cccc1Cl` [Diclofenac]?
arachidonic acid availability (in words) [1]: reduces arachidonic acid availability by inhibiting its release and stimulating its reuptake; pharmacological activity (in words) [2]: demonstrates anti-inflammatory, antipyretic, and analgesic activity
